One compound from patent US20240182482A1, “FUSED CYCLIC COMPOUND AS WEE-1 INHIBITOR, PREPARATION METHOD THEREFOR AND USE THEREOF” (WIGEN BIOMEDICINE TECHNOLOGY (SHANGHAI) CO., LTD., priority 2021, published 2024) can be followed below.

By UniProt entry, the sequences of proteins in these tests, tags left out.
UniProt P30291, whole entry: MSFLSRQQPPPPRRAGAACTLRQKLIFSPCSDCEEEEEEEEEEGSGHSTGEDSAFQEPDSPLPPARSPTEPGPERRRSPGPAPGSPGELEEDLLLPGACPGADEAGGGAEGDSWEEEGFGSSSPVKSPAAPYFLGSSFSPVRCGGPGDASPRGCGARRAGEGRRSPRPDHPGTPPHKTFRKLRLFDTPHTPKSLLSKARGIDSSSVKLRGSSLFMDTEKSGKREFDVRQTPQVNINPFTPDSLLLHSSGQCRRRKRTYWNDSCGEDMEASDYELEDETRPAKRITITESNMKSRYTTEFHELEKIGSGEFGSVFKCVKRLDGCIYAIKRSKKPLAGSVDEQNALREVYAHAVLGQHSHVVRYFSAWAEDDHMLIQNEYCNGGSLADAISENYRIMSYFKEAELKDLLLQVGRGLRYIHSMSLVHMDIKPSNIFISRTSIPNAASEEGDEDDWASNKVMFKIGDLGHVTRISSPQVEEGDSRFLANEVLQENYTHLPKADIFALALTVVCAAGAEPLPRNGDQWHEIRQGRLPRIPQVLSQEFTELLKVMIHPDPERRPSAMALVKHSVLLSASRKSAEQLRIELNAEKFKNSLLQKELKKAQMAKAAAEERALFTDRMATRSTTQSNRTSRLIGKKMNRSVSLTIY

pIC50: −log10 of the molar value.

Test [1] has as its system MIA PaCa-2 cells. The test is described as follows: In-vitro anti-proliferative activity in combination with gemcitabine (GMC) on MIA PaCa-2 cells. The test is classed as cell-based. The conditions noted are these: read-out: IC50 GMC (20 nM), anti-proliferative activity on MIA PaCa-2 cells; in combination with 20 nM gemcitabine, 72 h after dosing, ATP content.
Test [2] concerns MIA PaCa-2 cells. The test is described as follows: In-vitro anti-proliferative activity on MIA PaCa-2 cells (intracellular ATP content). The class given is cell-based. The conditions noted are these: read-out: IC50 Without GMC, anti-proliferative activity on MIA PaCa-2 cells, compound alone, 72 h after dosing.
Test [3] concerns the target Wee-1 kinase (Homo sapiens (Human), UniProt P30291). Description: Inhibitory activity against Wee-1 kinase (ADP-GLO chemiluminescence). The test is classed as biochemical. As to conditions: read-out: IC50 for the inhibitory activity against Wee-1 kinase, 60 min reaction at room temperature. On the technique in general: ADP-Glo first removes unused ATP, then detects ADP through luciferase.

What is called pIC50 is the negative decadic logarithm of the IC50, by convention in mol/L. Turning to `CN1Cc2cc(Nc3ncc4c(F)cn(-c5cncc(N=S(C)(C)=O)n5)c4n3)cc3c2C(CCC3)C1` (stereo not drawn), the pIC50 in test [1] is 8.80; in test [2], 7.14; in test [3], 8.68.
